# From ChEMBL document CHEMBL5445981, “Affinity On-target Cellular Literature for EUbOPEN Chemogenomic Library” (2024)
# The chains behind the UniProt entries cited, without tags or fusion partners. Where a name states a change or a piece, a line headed by the entry shows the natural chain unless it says otherwise.
# UniProt P49759: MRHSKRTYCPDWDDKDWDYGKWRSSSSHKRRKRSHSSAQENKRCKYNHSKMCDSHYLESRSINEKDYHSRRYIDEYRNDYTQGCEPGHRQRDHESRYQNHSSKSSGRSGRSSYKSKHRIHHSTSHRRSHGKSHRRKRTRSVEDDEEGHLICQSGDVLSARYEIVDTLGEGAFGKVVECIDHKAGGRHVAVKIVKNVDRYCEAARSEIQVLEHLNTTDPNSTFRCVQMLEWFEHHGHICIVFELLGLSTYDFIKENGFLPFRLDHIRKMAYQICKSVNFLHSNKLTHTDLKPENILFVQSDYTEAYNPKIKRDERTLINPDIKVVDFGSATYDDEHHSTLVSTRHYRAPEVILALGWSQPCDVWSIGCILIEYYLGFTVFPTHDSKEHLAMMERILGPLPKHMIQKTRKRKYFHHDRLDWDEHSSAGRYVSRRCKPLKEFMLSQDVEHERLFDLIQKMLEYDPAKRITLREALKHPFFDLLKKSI
# UniProt P49760, whole entry: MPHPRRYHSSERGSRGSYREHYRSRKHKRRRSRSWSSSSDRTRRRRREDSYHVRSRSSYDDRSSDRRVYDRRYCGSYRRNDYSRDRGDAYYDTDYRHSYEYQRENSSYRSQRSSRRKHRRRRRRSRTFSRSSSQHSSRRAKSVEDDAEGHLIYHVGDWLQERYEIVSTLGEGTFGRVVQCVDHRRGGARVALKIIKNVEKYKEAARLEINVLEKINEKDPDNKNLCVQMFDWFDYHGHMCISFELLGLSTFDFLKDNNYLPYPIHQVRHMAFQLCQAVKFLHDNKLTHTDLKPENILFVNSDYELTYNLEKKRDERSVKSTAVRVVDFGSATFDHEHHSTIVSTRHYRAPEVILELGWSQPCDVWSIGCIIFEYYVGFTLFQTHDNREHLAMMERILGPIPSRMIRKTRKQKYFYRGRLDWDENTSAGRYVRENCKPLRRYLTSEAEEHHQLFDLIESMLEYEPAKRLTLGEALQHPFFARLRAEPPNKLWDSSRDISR
# UniProt P31749: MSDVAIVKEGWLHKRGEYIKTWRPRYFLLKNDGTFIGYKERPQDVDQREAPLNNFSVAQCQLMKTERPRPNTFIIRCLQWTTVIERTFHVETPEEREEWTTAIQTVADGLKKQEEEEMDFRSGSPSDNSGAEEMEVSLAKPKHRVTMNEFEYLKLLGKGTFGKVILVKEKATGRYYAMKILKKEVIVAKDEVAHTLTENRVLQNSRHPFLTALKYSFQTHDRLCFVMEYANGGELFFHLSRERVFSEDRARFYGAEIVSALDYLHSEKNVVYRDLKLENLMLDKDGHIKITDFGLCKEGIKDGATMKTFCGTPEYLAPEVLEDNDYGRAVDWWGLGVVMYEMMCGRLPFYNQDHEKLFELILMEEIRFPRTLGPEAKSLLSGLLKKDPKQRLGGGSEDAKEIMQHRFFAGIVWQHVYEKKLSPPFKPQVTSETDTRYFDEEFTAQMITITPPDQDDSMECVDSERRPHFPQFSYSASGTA
# UniProt Q9Y2I7: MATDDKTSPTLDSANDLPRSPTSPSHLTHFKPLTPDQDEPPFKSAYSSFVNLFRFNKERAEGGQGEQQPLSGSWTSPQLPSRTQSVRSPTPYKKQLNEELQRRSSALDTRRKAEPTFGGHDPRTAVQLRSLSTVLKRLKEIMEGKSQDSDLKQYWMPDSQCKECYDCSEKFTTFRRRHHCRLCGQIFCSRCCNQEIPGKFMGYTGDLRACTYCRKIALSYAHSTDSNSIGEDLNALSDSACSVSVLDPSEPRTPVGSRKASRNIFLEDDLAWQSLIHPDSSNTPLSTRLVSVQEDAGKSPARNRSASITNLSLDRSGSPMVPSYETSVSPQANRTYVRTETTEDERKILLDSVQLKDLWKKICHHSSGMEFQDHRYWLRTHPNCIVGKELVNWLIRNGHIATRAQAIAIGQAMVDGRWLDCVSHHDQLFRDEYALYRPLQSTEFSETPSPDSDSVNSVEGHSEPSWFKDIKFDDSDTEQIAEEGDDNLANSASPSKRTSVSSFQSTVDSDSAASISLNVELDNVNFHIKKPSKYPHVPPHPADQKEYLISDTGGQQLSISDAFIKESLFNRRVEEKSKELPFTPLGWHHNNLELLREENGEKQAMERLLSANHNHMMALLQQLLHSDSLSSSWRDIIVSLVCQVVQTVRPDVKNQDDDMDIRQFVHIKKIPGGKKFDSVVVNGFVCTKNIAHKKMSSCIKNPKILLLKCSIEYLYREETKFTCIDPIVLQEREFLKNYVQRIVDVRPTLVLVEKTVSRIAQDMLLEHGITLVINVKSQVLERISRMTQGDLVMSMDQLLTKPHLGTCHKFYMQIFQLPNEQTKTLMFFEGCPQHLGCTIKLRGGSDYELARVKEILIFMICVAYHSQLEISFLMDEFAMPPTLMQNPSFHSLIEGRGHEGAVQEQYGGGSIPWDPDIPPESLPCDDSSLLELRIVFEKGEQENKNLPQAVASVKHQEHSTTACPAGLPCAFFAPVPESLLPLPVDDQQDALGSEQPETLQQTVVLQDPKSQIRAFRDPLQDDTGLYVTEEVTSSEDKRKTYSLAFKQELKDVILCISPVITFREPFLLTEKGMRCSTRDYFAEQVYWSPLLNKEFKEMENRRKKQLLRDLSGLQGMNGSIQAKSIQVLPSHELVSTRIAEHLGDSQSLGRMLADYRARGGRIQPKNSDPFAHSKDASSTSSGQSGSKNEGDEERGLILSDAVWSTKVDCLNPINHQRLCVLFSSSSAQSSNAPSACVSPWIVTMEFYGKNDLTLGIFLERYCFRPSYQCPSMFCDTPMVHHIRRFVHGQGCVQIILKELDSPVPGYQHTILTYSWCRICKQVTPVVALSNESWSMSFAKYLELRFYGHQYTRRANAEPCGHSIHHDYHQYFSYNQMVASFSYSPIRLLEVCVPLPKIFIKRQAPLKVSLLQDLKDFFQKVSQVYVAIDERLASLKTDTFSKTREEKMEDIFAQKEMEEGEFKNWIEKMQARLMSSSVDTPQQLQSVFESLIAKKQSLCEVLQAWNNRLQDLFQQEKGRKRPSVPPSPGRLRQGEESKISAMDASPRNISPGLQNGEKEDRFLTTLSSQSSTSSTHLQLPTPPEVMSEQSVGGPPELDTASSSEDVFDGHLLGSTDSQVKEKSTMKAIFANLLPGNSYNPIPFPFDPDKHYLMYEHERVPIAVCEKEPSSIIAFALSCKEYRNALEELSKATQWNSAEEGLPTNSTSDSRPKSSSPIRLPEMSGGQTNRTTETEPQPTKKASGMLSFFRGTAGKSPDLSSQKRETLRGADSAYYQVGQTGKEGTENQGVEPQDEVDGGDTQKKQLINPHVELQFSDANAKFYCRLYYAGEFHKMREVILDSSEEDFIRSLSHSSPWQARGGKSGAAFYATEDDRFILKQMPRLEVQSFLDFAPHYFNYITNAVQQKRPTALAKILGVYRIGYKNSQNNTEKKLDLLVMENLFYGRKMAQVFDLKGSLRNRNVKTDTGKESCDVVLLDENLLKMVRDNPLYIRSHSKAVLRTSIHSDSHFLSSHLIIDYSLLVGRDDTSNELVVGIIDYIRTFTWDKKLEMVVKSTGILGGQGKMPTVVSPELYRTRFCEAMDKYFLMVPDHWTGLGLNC
# UniProt P49674: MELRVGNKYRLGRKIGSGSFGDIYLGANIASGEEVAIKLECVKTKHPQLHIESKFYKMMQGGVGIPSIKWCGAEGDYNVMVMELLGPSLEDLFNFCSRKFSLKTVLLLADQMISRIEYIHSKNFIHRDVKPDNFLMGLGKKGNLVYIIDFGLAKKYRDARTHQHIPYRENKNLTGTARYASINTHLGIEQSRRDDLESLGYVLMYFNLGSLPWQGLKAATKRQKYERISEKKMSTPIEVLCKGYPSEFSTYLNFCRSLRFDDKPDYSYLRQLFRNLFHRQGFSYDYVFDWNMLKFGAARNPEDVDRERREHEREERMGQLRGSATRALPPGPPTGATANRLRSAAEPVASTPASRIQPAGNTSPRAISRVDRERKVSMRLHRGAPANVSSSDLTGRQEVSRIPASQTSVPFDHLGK
# UniProt P48730: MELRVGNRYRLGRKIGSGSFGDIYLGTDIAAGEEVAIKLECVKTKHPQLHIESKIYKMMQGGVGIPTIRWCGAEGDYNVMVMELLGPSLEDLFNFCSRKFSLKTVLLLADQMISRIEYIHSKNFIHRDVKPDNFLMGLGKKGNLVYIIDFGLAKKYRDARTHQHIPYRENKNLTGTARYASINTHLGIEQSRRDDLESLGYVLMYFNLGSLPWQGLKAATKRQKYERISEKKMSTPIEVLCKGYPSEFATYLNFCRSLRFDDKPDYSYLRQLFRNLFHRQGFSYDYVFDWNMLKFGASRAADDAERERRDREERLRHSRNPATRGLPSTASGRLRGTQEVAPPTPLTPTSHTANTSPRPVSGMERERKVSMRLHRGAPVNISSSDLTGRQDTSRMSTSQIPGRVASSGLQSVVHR
# pEC50, pIC50, pKi: −log10 of the molar value.
# Columns and labels:
# [1] = molecular target: Dual specificity protein kinase CLK1 (Homo sapiens, UniProt P49759); experiment: Affinity On-target Cellular interaction: (NanoBRET assay (in HEK293T cells)) EUB0000008b CLK1; type: cell-based, HEK-293T; set-up: mode of action Inhibitor, recommended concentration 1 uM
# [2] = molecular target: Dual specificity protein kinase CLK2 (Homo sapiens, UniProt P49760); experiment: Affinity On-target Cellular interaction: (NanoBRET assay (in HEK293T cells)) EUB0000008b CLK2; type: cell-based, HEK-293T; set-up: mode of action Inhibitor, recommended concentration 1 uM
# [3] = molecular target: RAC-alpha serine/threonine-protein kinase (Homo sapiens, UniProt P31749); experiment: Affinity On-target Cellular interaction: (NanoBRET assay (HEK293T cells)) EUB0001560a AKT1; type: cell-based; set-up: mode of action Negative control for BAY-1125976, recommended concentration 1 uM; conditions: hek-293t
# [4] = molecular target: 1-phosphatidylinositol 3-phosphate 5-kinase (Homo sapiens, UniProt Q9Y2I7); experiment: Affinity On-target Cellular interaction: (NanoBRET assay (HEK293T cells)) EUB0001877a PIKFYVE; type: cell-based, HEK-293T; set-up: mode of action Negative control for SGC-PIKFYVE, recommended concentration 100 nM
# [5] = molecular target: Casein kinase I isoform epsilon (Homo sapiens, UniProt P49674); experiment: Affinity On-target Cellular interaction: (Translocation Assay (CSNK1E mediated PER3 nuclear translocation in COS-7 cells)) EUB0001199aCl CSNK1E; type: cell-based, Chlorocebus aethiops; set-up: mode of action Inhibitor, recommended concentration 1 uM
# [6] = molecular target: Casein kinase I isoform delta (Homo sapiens, UniProt P48730); experiment: Affinity On-target Cellular interaction: (Translocation Assay (CSNK1D mediated PER3 nuclear translocation in COS-7 cells)) EUB0001199aCl CSNK1D; type: cell-based, Chlorocebus aethiops; set-up: mode of action Inhibitor, recommended concentration 1 uM
structure (smiles),measurement,setting,value
Cn1cc(-c2ccc3occ(-c4cccc(-c5ccncc5)c4)c3n2)cn1,pKi,[1],7.08
same,pKi,[2],7.04
NC1(c2ccc(-c3nc4c(O)ccnn4c3-c3ccccc3)cc2)CCC1,pIC50,[3],5.22
Nc1ncc2c(n1)-c1c([nH]c3ccc(C4CC4)cc13)CCCC2,pIC50,[4],< 5.00
CN1Cc2nccc(-c3cn(C)nc3-c3ccc(F)cc3)c2C1=O,pEC50,[5],6.50
same,pEC50,[6],7.24
